{"source": "ChEMBL document CHEMBL1155462", "about": "“Structure-activity relationship for thiohydantoin androgen receptor antagonists for castration-resistant prostate cancer (CRPC)” (J Med Chem, 2010)", "system": "LNCaP", "assay": "Inhibition of prostate specific antigen secretion in human LNCAP cells expressing androgen receptor in presence of charcoal stripped serum", "format": "functional, cell-based", "in_short": "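LNCaP/AR cells were made by viral infection with an AR cDNA to express 3–5 fold higher AR levels, mimicking CRPC. They were assayed in charcoal-stripped serum to mimic androgen depletion. Read-out was PSA level, with DMSO as the vehicle.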", "data": [{"smiles": "CNC(=O)c1ccc(N2C(=S)N(c3ccc(C#N)c(C(F)(F)F)c3)C(=O)C2(C)C)cc1F", "values": [{"measurement": "inhibition", "value": "Dose-dependent effect"}]}]}
